Data on one substance can be found in patent US9394233B2, “ROS-activated compounds as selective anti-cancer therapeutics” (University of Cincinnati, priority 2012, dated 2016).

This test deals with HeLa cells. Nature of the test: HeLa cell viability, MTT assay. The class given is cell-based. The following applies: read-out: IC50 against HeLa Cells, 50% reduction in percent of viable HeLa cells. As to the method:
Table 1 sets forth ROS-Activated compounds of the present invention, together with their IC50 values corresponding to a 50% reduction in the percent of viable HeLa cells in vitro as measured via MTT assay.
All synthesized compounds were purified to greater than 98% purity prior to cell testing. HeLa cell viability assays were performed using an MTT assay.
The general structure of the ROS-activated compounds disclosed herein was probed to determine how positions in the structure alter potency in aqueous media. Compounds were screened against HeLa cells to determine IC50 values. Cell viability was monitored by an MTT dye that forms a purple formazan product in viable cells that are undergoing metabolism. […] Errors reported are between two separate experiments; independent curve-fitting had r greater than 0.95).
(Formazan colour is commonly taken as a measure of viable cells.)

What is called IC50 is the concentration needed to halve the response being measured. Regarding N-methyl-N-(3-phenoxypropyl)aniline, the IC50 was more than 125 µM.
